IC50 data for one compound are collected here from patent EP1611112B1, “ISOXAZOLE COMPOUNDS AS INHIBITORS OF HEAT SHOCK PROTEINS” (Vernalis (Cambridge) Limited, priority 2003, dated 2004).

The chains behind the UniProt entries cited, without tags or fusion partners.
UniProt P08238, whole entry: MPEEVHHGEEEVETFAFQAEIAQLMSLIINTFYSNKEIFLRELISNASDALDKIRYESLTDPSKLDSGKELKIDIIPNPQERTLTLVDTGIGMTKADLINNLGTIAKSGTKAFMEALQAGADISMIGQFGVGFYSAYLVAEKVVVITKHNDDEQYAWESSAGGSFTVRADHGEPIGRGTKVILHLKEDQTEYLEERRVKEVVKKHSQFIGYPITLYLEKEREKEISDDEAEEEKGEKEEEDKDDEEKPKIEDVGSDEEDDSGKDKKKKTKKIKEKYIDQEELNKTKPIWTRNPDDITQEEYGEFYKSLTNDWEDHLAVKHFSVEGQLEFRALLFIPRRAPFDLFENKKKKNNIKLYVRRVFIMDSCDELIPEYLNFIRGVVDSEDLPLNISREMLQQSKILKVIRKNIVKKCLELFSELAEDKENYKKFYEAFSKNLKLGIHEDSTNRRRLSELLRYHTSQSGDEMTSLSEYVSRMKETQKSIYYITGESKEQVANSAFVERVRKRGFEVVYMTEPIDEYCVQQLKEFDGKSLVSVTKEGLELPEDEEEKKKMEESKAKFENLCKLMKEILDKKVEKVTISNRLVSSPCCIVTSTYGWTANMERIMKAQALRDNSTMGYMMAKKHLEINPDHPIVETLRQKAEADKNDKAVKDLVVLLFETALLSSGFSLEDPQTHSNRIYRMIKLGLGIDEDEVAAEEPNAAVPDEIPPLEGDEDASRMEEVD

pIC50: −log10 of the molar value.

For this experiment, the target named is T1, human full-length HSP90 (Homo sapiens, UniProt P08238).
T1 construct: E. coli expressed human full-length HSP90 protein; made in house; host or cells: E. coli
Nature of the experiment: Fluorescence Polarisation Assay (displacement of fluorescein-labelled probe RBT0045864-FAM). Format: binding. As to conditions: activity range. The text has this:
A Fluorescence Polarization_assay was also employed for the evaluation of some of the compounds of the Examples:
Fluorescence polarization {also known as fluorescence anisotropy} measures the rotation of a fluorescing species in solution, where the larger molecule the more polarized the fluorescence emission.
When the fluorophore is excited with polarized light, the emitted light is also polarized. The molecular size is proportional to the polarization of the fluorescence emission.
Test compound is added to the assay plate, left to equilibrate and the anisotropy measured again. Any change in anisotropy is due to competitive binding of compound to HSP90, thereby releasing probe.
Stored at room temperature. • 3) BSA (bovine serum albumen) 10 mg/ml (New England Biolabs # B9001S) • 4) 20 mM probe in 100 % DMSO stock concentration. Stored in the dark at RT. Working concentration is 200 nM diluted in AR water and stored at 4 °C.
1) Add 100µl 1x buffer to wells 11A and 12A (=FP BLNK) 2) Prepare assay mix - all reagents are kept on ice with a lid on the bucket as the probe is light-sensitive.
This gives 2.5 mM {50x} stock cpd - assuming cpds 20 mM. • 4) Repeat for wells A2 to A10. […] Add 2 µl of 100mM standard cpd to wells B12 - H12 {is positive control } • 13)The Z' factor is calculated from zero controls and positive wells.
On the technique in general: Polarisation of emitted light reports the rotation of a fluorescent probe.

Take `CCNCc1noc(-c2cc(Cl)c(OCc3ccccc3)cc2OCc2ccccc2)c1-c1cccc(Cl)c1` [Example 39]: the negative logarithm of the IC50 (pIC50) (in general, −log10 of the IC50, conventionally taken in molar units) was more than 5.00.
